## AlphaSeq binding of Ab-14 light chain variants to a spike HR2 peptide

Source: Engelhart et al. 2022 (doi:10.1038/s41597-022-01779-4), MIT Lincoln Laboratory and A-Alpha Bio; data file from the FLAb repository.

The target is the same throughout: PDVDLGDISGINAS, from the HR2 region of SARS-CoV-2 spike.

Parent scFv Ab-14: VH joined to VL by three GGGGS repeats. Changes lie in the light chain CDRs alone.
VH: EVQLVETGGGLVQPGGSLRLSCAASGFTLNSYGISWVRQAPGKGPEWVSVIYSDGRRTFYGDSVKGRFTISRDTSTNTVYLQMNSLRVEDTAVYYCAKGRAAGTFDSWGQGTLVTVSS
VL: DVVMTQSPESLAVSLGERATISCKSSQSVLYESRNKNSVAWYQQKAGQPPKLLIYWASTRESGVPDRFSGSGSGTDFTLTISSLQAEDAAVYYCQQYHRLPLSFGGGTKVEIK

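The starting antibody came from a phage panning campaign against this peptide. The library (AAYL50) carries one to three amino acid substitutions per variant, with no insertions or deletions. The scFvs were displayed on barcoded MATa yeast, the peptide on MATalpha yeast. After mating in shaken culture at 30 °C for 16 h, diploids were selected and their barcode pairs sequenced. The ratio of observed to expected reads was calibrated, replicate by replicate, on BCL2-family standards whose Kd was known from biolayer interferometry. Each pool was mated in three replicate cultures.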

The parent's light chain CDRs are KSSQSVLYESRNKNSVA, WASTRES, QQYHRLPLS; each variant's own CDRs replace them letter for letter.
Each Kd is an estimate from the mating assay, the geometric mean of the replicates in which the pair was seen; lower is stronger.
A pair that was not seen in any replicate is written "no signal"; this usually means weak binding, but a binder can also be missed.
Three control strains display no target. For library AAYL50, 18% of the pairings with them gave a signal, with a median of 15 µM and one signal in twenty below 970 nM, so weak values seen in few replicates may be background.

CDR-L1,CDR-L2,CDR-L3,Kd,detected
KSSQSVLVESRNKNSVA,WASTRES,QQHHRLNLS,85 µM,2 of 3
KSSQQVLYESRNKNSLA,WMSTRES,QQYHRLPLS,no signal,0 of 3
KSSQSVLYESRNKTSVA,WASTNES,QQYHRLRLS,140 µM,2 of 3
TSSQSVAYESRNKNSVA,WASTRES,QQYHRLPLS,150 nM,3 of 3
KSSQSVLYEYREKNSVA,WASTRES,QQYHRQPLS,250 µM,1 of 3
KSSQSVLYKSRNKNSVA,WASERMS,QQYHRLPLS,16 nM,3 of 3
KSSQSVLYESRRKNSVA,WASTRAS,QQDHRLPLS,330 µM,2 of 3
KSSQEVLYESANKNSVA,FASTRES,QQYHRLPLS,110 µM,3 of 3
KSSQSVLYELRNKNSVA,WASTRKS,QQYHRLMLS,no signal,0 of 3
KSEQSVLYESRNKNSVA,WASTRWS,QRYHRLPLS,6.2 µM,3 of 3
KSSQEVLYESRNKNSVI,WASTNES,QQYHRLPLS,3.8 µM,1 of 3
KSSESVLYESRNKNSVA,WAATRES,QQYHRLPGS,no signal,0 of 3
WSSQSVLYESRNKNSVA,WASTRES,QGYKRLPLS,30 µM,3 of 3
KSGQSVLYESRNKQSVA,WASTKES,QQYHRLPLS,no signal,0 of 3
KSSQCVLVESRNKNSVA,WASTRES,QQYHRFPLS,no signal,0 of 3
KPSQSVLYESRNKNAVA,WASTRES,QQYHRLPAS,no signal,0 of 3
KSSQSVLYESRCKNNVA,WASTRES,MQYHRLPLS,8.5 µM,3 of 3
KSSQSVLYISRNKNSVA,WASPRES,QQYHRLPPS,1.4 mM,1 of 3
KSSQSVLYESINKNSCA,DASTRES,QQYHRLPLS,12 nM,3 of 3
KSSFSVLYESRKKNSVA,WASTRES,QAYHRLPLS,no signal,0 of 3
KSSQSVLYESRNKNSVT,WAITRES,QQYHRLPLG,69 µM,3 of 3
KSSQSILYESRPKNSVA,WASTRES,QQYHRLPLS,33 nM,3 of 3
KSSQSVLYESRNKNSWA,WASTVWS,QQYHRLPLS,no signal,0 of 3
KSSYSVLYWSRNKNSVA,WASTRGS,QQYHRLPLS,no signal,0 of 3
MSSQSVLRESRNKNSVA,WASTRRS,QQYHRLPLS,5.8 µM,1 of 3
GSSQSVLYESPNKNSVA,WASTRES,QQYHQLPLS,14 nM,3 of 3
KSSQSVLYESRNKNSVA,WASTRES,QQYAVLPLS,14 nM,3 of 3
KSSQSYLYESRNKNSVA,FASTRES,QQTHRLPLS,no signal,0 of 3
KSSQSVLYESRNKNSVA,GASTRES,GQYHRLPLI,1.9 nM,3 of 3
KSSQSVLYESRNKQSWA,WASTRES,QQYHALPLS,400 nM,3 of 3
DHSQSVLYESRNKNSVA,WASTYES,QQYHRLPLS,870 µM,1 of 3
KSSHSVLYESRNKISVA,WASTRES,WQYHRLPLS,24 µM,1 of 3
KSRQSVLRESRNKNSVA,WASTRES,QQYHRLMLS,3.9 µM,1 of 3
KSSQWVLYESRQKNSVA,WASTWES,QQYHRLPLS,no signal,0 of 3
KSRQSVLYESRNRNSVA,WASTRES,QQYHRNPLS,440 nM,1 of 3
KKSQSVLYESRNKNIVA,WASTRES,QQYWRLPLS,no signal,0 of 3
KDSPSVLYESRNKNSVA,WASTRES,QQYHRPPLS,no signal,0 of 3
KSSQSVLYELNNKNSGA,WASTRES,QQYHRLPLS,no signal,0 of 3
KSSKSVLYESDNLNSVA,WASTRES,QQYHRLPLS,no signal,0 of 3
KSSQSVLYESRNKNSVA,WASTTVS,QQYHRLPYS,2.5 µM,2 of 3
KSSQSVLSESRNKNSVA,WASTRES,QQYHRLLLH,18 nM,3 of 3
KSSQSVLYESRNKNSVA,WTSTRES,WQYHRLVLS,no signal,0 of 3
KSSHSVLGESRNKNSVA,WASTRES,QQYHRLPLS,3.4 nM,3 of 3
KTSQGVLYESRNKNHVA,WASTRES,QQYHRLPLS,11 nM,3 of 3
KSSQSVLYESRNQNSVA,WASTRES,SQYHRLDLS,6.9 nM,3 of 3
YSSQSVLYESANKNSVA,WASTRET,QQYHRLPLS,190 nM,3 of 3
KSSQSVLYESRSKNSVA,FASTRES,QQYHRLLLS,13 nM,3 of 3
KSTQSVLYHSRNKNSVA,WASTRES,QQYYRLPLS,52 nM,3 of 3
KSSQIVLYESRNKNSVA,WASTRES,PQMHRLPLS,1.0 µM,3 of 3

The first 5 variants above that were never detected:

{"CDR-L1": "KSSQQVLYESRNKNSLA", "CDR-L2": "WMSTRES", "CDR-L3": "QQYHRLPLS", "Kd": "no signal", "detected": "0 of 3"}
{"CDR-L1": "KSSQSVLYELRNKNSVA", "CDR-L2": "WASTRKS", "CDR-L3": "QQYHRLMLS", "Kd": "no signal", "detected": "0 of 3"}
{"CDR-L1": "KSSESVLYESRNKNSVA", "CDR-L2": "WAATRES", "CDR-L3": "QQYHRLPGS", "Kd": "no signal", "detected": "0 of 3"}
{"CDR-L1": "KSGQSVLYESRNKQSVA", "CDR-L2": "WASTKES", "CDR-L3": "QQYHRLPLS", "Kd": "no signal", "detected": "0 of 3"}
{"CDR-L1": "KSSQCVLVESRNKNSVA", "CDR-L2": "WASTRES", "CDR-L3": "QQYHRFPLS", "Kd": "no signal", "detected": "0 of 3"}